EC50 data for one compound are collected here from patent US12247064B2, “Modified ligand-gated ion channels and methods of use” (Howard Hughes Medical Institute, priority 2017, dated 2025).

The chains behind the UniProt entries cited, without tags or fusion partners. A line that says so, or that is headed by a name, gives the form on record, which may keep a tag or linker. Residues count along the entry.
UniProt P36544, 23-229 with tags or gaps: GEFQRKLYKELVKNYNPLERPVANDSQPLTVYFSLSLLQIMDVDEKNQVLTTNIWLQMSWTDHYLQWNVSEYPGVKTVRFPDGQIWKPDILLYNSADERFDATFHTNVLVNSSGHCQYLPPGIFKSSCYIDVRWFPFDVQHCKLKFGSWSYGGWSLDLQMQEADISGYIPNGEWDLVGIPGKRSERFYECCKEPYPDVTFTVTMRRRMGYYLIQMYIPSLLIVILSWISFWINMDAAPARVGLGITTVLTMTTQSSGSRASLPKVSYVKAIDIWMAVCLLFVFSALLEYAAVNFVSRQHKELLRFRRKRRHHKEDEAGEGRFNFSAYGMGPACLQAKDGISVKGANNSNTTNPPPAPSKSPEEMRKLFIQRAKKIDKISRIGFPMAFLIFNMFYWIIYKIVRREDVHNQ
UniProt P36544, 23-229 with tags or gaps Q79G limits assumed: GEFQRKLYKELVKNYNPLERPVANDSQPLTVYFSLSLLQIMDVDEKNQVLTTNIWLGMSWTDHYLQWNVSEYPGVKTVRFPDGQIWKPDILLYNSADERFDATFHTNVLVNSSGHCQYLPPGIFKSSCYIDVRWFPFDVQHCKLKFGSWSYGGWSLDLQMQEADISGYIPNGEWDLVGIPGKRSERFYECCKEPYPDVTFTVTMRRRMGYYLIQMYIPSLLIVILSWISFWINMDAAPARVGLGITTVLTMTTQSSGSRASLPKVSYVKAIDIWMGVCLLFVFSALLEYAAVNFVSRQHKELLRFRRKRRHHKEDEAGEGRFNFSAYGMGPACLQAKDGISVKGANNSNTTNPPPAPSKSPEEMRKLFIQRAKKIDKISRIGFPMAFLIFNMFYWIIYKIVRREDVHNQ

The term EC50 denotes the midpoint of the concentration-response curve.

In one experiment the target is α7-GlyR (Homo sapiens, UniProt P36544). To be noted: read-out: α7-GlyR EC50; HEK cells; Table 3.
For another experiment, the target named is α7^Q79G-GlyR^A298G (Homo sapiens, UniProt P36544, A298G/Q79G). To be noted: read-out: α7^Q79G-GlyR^A298G EC50; HEK cells; Table 3.

As to `O=C(OC1CN2CCC1CC2)c1ccc(C(F)(F)F)cc1` (centres unmarked), the EC50 was 13.7 µM at α7-GlyR and 1430 nM on α7^Q79G-GlyR^A298G.
